Experimental data: patent US5677146A, “Human amyloid protein precursor homolog and kunitz-type inhibitor” (Zymogenetics, Inc., priority 1995, dated 1997)

What was measured:
Chymotrypsin = assay: Protease inhibitory activity assay, chymotrypsin; type: biochemical; conditions: 1 μM inhibitor; chymotrypsin 2.5 nM; MeO-Suc-Arg-Pro-Tyr-pNA 0.6 mM; 25° C.
Procedure: (§1) Protease inhibitory profiles of the Kunitz inhibitors were determined for a variety of proteases using the chromogenic substrates listed in Table 2 and compared to the inhibitory activity shown by the Kunitz-type inhibitor domain of the amyloid protein precursor (Example 2E) and bovine aprotinin (amino acids 1-58 as described by Norris et al., ibid.; which is incorporated by reference herein in its entirety).
MeO--Suc--Arg--Pro--Tyr--pNA
(§2) Inhibition assays were performed in microtiter wells in a total volume of 300 μl in 10 mM NaCl, 50 mM Tris-HCl (pH 7.4), 0.01% TWEEN80 (Polyoxyethylenesorbitan monoleate). The reactions were incubated at 25° C. for ten minutes after which the appropriate chromogenic substrate was added to the final concentration listed in Table 2 and the final reaction was incubated for thirty minutes at 25° C. Amidolytic activity was measured at 405 nm or by fluorescence Em at 460 nm. Percent inhibition was determined relative to reactions carried out in the absence of inhibitor representing 100% activity or 0% inhibition.

[1] = system: GL Kallikrein (glandular kallikrein); assay: Protease inhibitory activity assay, glandular kallikrein; type: biochemical; conditions: 1 μM inhibitor; GL kallikrein 1 U/ml; H-D-Val-Leu-Arg-pNA 0.6 mM; 25° C.
Procedure: as §1
H--D--Val--Leu--Arg--pNA
Abbreviations in Table 2: rec. refers to recombinant, GL kallikrein refer
to glandular kallikrein, and PL kallikrein refers to plasma kallikrein.
as §2

Question: With aprotinin [BPTI] as the substance, how does the “% Inhibition, Chymotrypsin” value (Chymotrypsin) read?
Answer: 91.3%

Question: And the “% Inhibition, GI Kallikrein” value [1]?
Answer: 91.4%
